Results: patent publication US8546526

The chains behind the UniProt entries cited, without tags or fusion partners. Residues count along the entry.
UniProt P06756, 31-1048, chain 1 of 2: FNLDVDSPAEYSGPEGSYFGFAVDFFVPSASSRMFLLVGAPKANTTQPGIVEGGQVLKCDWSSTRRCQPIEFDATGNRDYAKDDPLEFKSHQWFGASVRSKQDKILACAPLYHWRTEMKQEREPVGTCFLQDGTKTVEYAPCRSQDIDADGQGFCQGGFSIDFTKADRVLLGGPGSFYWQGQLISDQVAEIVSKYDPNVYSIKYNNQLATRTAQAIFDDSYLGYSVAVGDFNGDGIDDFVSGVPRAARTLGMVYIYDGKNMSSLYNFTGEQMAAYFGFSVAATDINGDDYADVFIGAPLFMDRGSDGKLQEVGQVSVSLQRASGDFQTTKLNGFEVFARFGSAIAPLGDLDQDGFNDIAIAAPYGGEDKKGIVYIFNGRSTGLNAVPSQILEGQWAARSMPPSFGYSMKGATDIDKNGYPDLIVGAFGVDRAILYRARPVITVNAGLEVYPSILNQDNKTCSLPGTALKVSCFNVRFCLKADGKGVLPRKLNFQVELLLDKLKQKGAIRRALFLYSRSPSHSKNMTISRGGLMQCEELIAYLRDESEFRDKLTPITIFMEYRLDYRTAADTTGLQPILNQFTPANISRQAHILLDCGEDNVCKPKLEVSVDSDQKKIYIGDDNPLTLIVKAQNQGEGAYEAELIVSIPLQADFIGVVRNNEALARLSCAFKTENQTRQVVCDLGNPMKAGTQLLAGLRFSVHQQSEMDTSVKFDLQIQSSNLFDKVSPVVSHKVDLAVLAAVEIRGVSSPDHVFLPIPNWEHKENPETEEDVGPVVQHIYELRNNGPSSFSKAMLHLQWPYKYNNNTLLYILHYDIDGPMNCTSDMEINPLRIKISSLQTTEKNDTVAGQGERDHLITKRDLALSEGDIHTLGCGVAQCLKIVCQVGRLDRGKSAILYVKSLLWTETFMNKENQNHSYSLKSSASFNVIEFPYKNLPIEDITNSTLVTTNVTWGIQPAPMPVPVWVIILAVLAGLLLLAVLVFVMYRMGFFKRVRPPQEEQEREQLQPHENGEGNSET

Biological target: integrin αvβ3 on K562 cells (Kαvβ3) (UniProt P06756)
Assay: cell-based or functional assay

IC50 of inhibition of Kαvβ3 cell adhesion to vitronectin (representative curve, FIG. 2 panel A): 0.68 µM
Substance: c(RGDfV) (peptide)
